Assay results taken from patent publication US20060100179A1, “Compositions and methods for use in targeting vascular destruction” (priority 2002, published 2006).

Tested on: HDF (human neonatal dermal fibroblasts)
Assay: Cell survival by clonogenic assay (colony count or MTT) in HDF
Conditions: one-hour exposure; prodrug IC50 versus cytotoxic form IC50 in HDF
Protocol: Cell culture. Four commercially available human cell lines were grown in the indicated media below in 5% CO2, 80% humidity and 37EC: • 1. HL60 human leukemic cells, a pro-apoptotic cell line—cultured in RPMI 1640 fortified with 10% fetal calf serum. • 2. K562 human leukemic cells, an apoptotic-resistant cell line—cultured in RPMI 1640 fortified with 10% fetal calf serum. • 3. Human neonatal microvascular endothelial cells (HMVEC)—cultured in medium 131+microvascular growth supplement (MVGS)+attachment factor (AF)=500 ml+25 ml (AF is added 2-3 ml/T-25 flask; all reagents supplied by Cascade Biologics, Inc., Portland, Oreg.). • 4. Human neonatal dermal fibroblasts (HDF)—cultured in medium 106+low serum growth supplement (LSGS)=500 ml+10 ml (Cascade Biologics, Inc.).
Cell survival by clonogenic assay. […] After 5 days of incubation under the standard culture conditions stated above, colonies (>40 cells) were counted by an inverted light microscope or estimated by MTT assay. […]
Experiment 1. […] Clonogenic growth was recorded after 5 days incubation for all treatments. […]
The combretastatins are a family of naturally occurring tubulin binding agents comprising an A-,B-,C- and D- series of structures (U.S. Pat. Nos. 4,940,726; 4,996,237; 5,409,953; and 5,569,786). […] The compounds were added to microcultures in DMSO (i.e <0.5%) and toxicity was evaluated by MTT assay after 5-7 days in culture. […]

## Combretastatin A1 Piperazine PO4
  protecting HDF from cytotoxicity by the phosphate prodrug form: only marginally effective
